## Antibody variant affinities, Ab-14 heavy chain, assay 1

Antigen: PDVDLGDISGINAS, a 14-residue peptide of the SARS-CoV-2 spike HR2 region.

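The parent was found by panning a naive human phage display library on the peptide. Library AAYL49 holds single substitutions and randomly drawn double and triple substitutions in the CDRs. The scFvs were displayed on barcoded MATa yeast, the peptide on MATalpha yeast. Binding brings cells together so that they mate, and sequencing counts the barcode pairs among the diploids. A regression on co-assayed BCL2-family reference pairs converts the normalised counts of each replicate to an apparent Kd. Each pool was mated in three replicate cultures.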

The variants keep the light chain, the linker and the frameworks of Ab-14 (scFv order VH, a (GGGGS)3 linker, VL).
VH: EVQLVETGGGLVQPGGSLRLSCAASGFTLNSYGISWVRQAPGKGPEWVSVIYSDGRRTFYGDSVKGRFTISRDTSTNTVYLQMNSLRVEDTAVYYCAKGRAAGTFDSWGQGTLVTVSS
VL: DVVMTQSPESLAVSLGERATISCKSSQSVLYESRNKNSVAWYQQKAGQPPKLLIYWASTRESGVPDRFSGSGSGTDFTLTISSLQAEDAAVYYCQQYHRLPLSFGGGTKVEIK

Substitutions are numbered in sequence along the VH above, starting at 1 (not Kabat). Every variant below is changed at Y32 of the VH (sequential numbering). Kd is apparent (estimated from mating counts) and averaged on the log scale over replicates with a signal. Smaller is tighter. An entry "nd" has no value in the source: the pair was not observed among the diploids in any replicate. This suggests poor binding but is not conclusive. Background: pairings of library AAYL49 with three empty control strains gave a value in 15% of cases (median 11 µM, 5th percentile 680 nM). Values in that range, when seen in few replicates, are hard to tell from nonspecific mating. For each scFv, signals with the empty controls are counted beside the result.

For Y32V+Y60N, the assay gave 1.8 µM (1 of 3 replicates; controls 3 of 9). Variant Y32W+F59S+S107R gave nd (0 of 3 replicates; controls 1 of 9). Variant F27E+Y32W+G33E showed 62 µM (2 of 3 replicates; controls 0 of 9). Variant Y32R gave 130 µM (2 of 3 replicates; controls 1 of 9). For Y32N+A102V+D106N, the assay gave 58 µM (1 of 3 replicates; controls 1 of 9). Variant Y32H+D54W+V64W gave 26 µM (1 of 3 replicates; controls 2 of 9). Variant T28L+Y32G+V64I showed nd (0 of 3 replicates; controls 2 of 9).

Variant Y32N+S63C+A102S gave 2.1 µM (1 of 3 replicates; controls 3 of 9). Variant Y32H+S53T+G99Y gave nd (0 of 3 replicates; controls 0 of 9). With S31E+Y32N+K65A the result was 710 nM (2 of 3 replicates; controls 0 of 9). Variant Y32T+G33M+I51V showed 17 µM (1 of 3 replicates; controls 0 of 9). With S31P+Y32W+G99M the result was 9.0 µM (2 of 3 replicates; controls 6 of 9). With Y32K+D54Q+G55H the result was nd (0 of 3 replicates; controls 4 of 9). For F27K+Y32A+Y60C, the assay gave nd (0 of 3 replicates; controls 2 of 9).

For Y32G+S35A+S63D, the assay gave nd (0 of 3 replicates; controls 0 of 9). For Y32S+D54T+S107I, the assay gave nd (0 of 3 replicates; controls 0 of 9). For N30P+Y32H, the assay gave 66 µM (2 of 3 replicates; controls 6 of 9). For N30A+Y32M+I51S, the assay gave nd (0 of 3 replicates; controls 0 of 9). Variant Y32C+D54C showed nd (0 of 3 replicates; controls 1 of 9). Variant F27K+Y32G+Y52H showed nd (0 of 3 replicates; controls 0 of 9). Variant Y32G+V50R+G61E showed nd (0 of 3 replicates; controls 3 of 9).

For Y32E+I51V+Y52E, the assay gave 3.0 µM (2 of 3 replicates; controls 3 of 9). With Y32P+V50W+G61I the result was nd (0 of 3 replicates; controls 1 of 9). Variant Y32N+S35M+G61T gave 37 µM (2 of 3 replicates; controls 5 of 9). For S31T+Y32T+R100D, the assay gave 2.7 µM (3 of 3 replicates; controls 1 of 9). Variant F27I+S31P+Y32T showed 24 µM (1 of 3 replicates; controls 1 of 9). For Y32H+V50L+R56Q, the assay gave nd (0 of 3 replicates; controls 1 of 9). Variant T28A+Y32V+S63I showed nd (0 of 3 replicates; controls 1 of 9).

Variant S31C+Y32A+F105I gave 12 µM (1 of 3 replicates; controls 4 of 9). Variant L29W+Y32M+G61V gave nd (0 of 3 replicates; controls 1 of 9). With N30M+Y32L+S63F the result was nd (0 of 3 replicates; controls 2 of 9). With S31I+Y32C+R56G the result was 4.5 µM (1 of 3 replicates; controls 1 of 9). For Y32E+S53G+T104Q, the assay gave 2.2 µM (1 of 3 replicates; controls 3 of 9). With F27S+L29G+Y32K the result was nd (0 of 3 replicates; controls 0 of 9). Variant Y32V+I51Q+K65F gave 12 µM (1 of 3 replicates; controls 2 of 9).

Variant Y32I+S53I+T58V gave 12 µM (2 of 3 replicates; controls 3 of 9). Variant Y32S+Y52M+R56H gave nd (0 of 3 replicates; controls 0 of 9). With Y32I+G33P+Y52N the result was nd (0 of 3 replicates; controls 2 of 9). For S31V+Y32F+T104C, the assay gave nd (0 of 3 replicates; controls 0 of 9). For Y32L+I51Q+V64R, the assay gave nd (0 of 3 replicates; controls 0 of 9). Variant Y32C+Y52A+A102T showed nd (0 of 3 replicates; controls 0 of 9). With Y32Q+G55C the result was nd (0 of 3 replicates; controls 2 of 9).

Variant Y32Q+S35Y+D54C gave nd (0 of 3 replicates; controls 3 of 9). Variant Y32V+G33S+F59K showed 240 nM (1 of 3 replicates; controls 0 of 9). With L29S+Y32N+R100F the result was nd (0 of 3 replicates; controls 2 of 9). Variant Y32D+G61N+K65Q showed nd (0 of 3 replicates; controls 0 of 9). With Y32C the result was 82 nM (3 of 3 replicates; controls 1 of 9). Variant S31T+Y32H+I34K gave 29 µM (1 of 3 replicates; controls 5 of 9). For Y32M+Y60I+T104R, the assay gave 93 µM (3 of 3 replicates; controls 4 of 9).

For Y32I+I51S+D106I, the assay gave nd (0 of 3 replicates; controls 0 of 9). Variant L29S+Y32V+Y52E showed nd (0 of 3 replicates; controls 0 of 9). For Y32R+D54W+K65Q, the assay gave nd (0 of 3 replicates; controls 1 of 9).

Again, the first 5 entries without any signal:

changes	apparent Kd	replicates with signal	empty controls
Y32W+F59S+S107R	nd	0/3	1/9
T28L+Y32G+V64I	nd	0/3	2/9
Y32H+S53T+G99Y	nd	0/3	0/9
Y32K+D54Q+G55H	nd	0/3	4/9
F27K+Y32A+Y60C	nd	0/3	2/9

Parent in this assay: reference entry 4.4 nM, copy in this library 13 µM (one replicate of three).

Source: Engelhart et al. 2022 (doi:10.1038/s41597-022-01779-4), MIT Lincoln Laboratory and A-Alpha Bio; data file from the FLAb repository.